One molecule from ChEMBL document CHEMBL5329202, “New aryl-/heteroarylpiperazine derivatives of 1,7-dimethyl-8,9-diphenyl-4-azatricyclo[5.2.1.02,6]dec-8-ene-3,5,10-trione: Synthesis and preliminary studies of biological activities” (Bioorg Med Chem, 2023) can be followed below.

Chains of the proteins cited; added tags and fusions are not shown.
UniProt P31390, whole entry: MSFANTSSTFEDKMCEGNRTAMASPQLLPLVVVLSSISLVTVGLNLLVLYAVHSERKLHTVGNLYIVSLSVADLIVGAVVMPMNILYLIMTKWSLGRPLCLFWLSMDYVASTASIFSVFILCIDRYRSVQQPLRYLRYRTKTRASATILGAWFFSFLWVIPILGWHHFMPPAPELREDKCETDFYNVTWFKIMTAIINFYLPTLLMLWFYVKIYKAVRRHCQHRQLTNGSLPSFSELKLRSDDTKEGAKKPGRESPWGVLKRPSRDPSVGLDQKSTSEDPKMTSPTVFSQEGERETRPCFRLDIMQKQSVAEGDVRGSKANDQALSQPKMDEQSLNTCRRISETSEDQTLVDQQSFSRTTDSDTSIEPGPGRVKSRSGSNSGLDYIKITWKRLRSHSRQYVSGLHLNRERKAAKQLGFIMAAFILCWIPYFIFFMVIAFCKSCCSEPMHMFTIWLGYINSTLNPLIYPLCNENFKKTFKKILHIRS

By Ki is commonly meant the dissociation constant of the complex between target and ligand, obtained from inhibition or displacement.

In the assay the target is Histamine H1 receptor (Rattus norvegicus, UniProt P31390). Kind of assay: Displacement of [3H]pyrilamine from Sprague-Dawley rat H1 receptor assessed as inhibition constant measured after 30 mins by competitive binding assay. Background: Loss of bound radioactivity is the signal in a displacement assay; it reports binding, not function.

Turning to `CC(CN1c2ccccc2Sc2ccccc21)N(C)C` (stereo unspecified) [PROMETHAZINE], the Ki was 1 nM.
